Results published in ChEMBL document CHEMBL1144605, “Discovery of an androgen receptor modulator pharmacophore based on 2-quinolinones” (Bioorg Med Chem Lett, 2007).
pEC50, pKi: −log10 of the molar value.

Sequences of proteins named here, by UniProt entry; tags and fusion partners are left off. A change or cut given only in a name is not applied to a line headed by its entry.
UniProt P10275: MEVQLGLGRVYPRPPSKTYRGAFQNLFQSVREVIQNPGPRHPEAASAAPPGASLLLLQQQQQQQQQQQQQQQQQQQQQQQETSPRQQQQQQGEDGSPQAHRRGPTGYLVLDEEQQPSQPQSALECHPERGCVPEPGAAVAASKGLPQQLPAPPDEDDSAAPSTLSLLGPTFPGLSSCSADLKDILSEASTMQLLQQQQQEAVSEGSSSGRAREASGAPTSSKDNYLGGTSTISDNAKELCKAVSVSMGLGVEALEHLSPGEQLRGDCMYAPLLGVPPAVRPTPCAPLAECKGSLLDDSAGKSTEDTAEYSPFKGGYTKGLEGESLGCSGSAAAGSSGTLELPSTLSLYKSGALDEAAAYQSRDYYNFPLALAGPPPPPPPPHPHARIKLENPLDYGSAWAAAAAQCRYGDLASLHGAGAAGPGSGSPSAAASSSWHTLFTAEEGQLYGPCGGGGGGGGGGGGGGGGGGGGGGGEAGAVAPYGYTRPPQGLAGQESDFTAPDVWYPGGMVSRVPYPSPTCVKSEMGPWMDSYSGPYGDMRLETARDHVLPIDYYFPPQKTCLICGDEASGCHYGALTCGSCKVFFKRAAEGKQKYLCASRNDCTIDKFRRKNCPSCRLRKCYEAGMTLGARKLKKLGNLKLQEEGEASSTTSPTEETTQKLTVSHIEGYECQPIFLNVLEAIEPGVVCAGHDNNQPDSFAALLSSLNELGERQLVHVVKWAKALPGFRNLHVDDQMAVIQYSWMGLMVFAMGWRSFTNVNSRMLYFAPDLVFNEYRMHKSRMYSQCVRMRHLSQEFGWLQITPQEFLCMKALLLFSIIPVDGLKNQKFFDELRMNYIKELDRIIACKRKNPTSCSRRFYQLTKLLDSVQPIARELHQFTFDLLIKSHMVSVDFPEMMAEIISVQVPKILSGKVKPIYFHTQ

What was measured:
Androgen receptor [1] = molecular target: T1, Androgen receptor (Homo sapiens, UniProt P10275)
Androgen receptor [2] = molecular target: T1, Androgen receptor; experiment: biochemical

Structure (SMILES)	pEC50 (Androgen receptor [1])	pKi (Androgen receptor [2])
Nc1ccc2c(C(F)(F)F)cc(=O)[nH]c2c1	5.89	6.39
CNc1ccc2c(C(F)(F)F)cc(=O)[nH]c2c1	–	7.08
CCNc1ccc2c(C(F)(F)F)cc(=O)[nH]c2c1	–	7.54
CCCCNc1ccc2c(C(F)(F)F)cc(=O)[nH]c2c1	–	7.30
CC(C)CNc1ccc2c(C(F)(F)F)cc(=O)[nH]c2c1	–	7.19
CC(C)(C)CNc1ccc2c(C(F)(F)F)cc(=O)[nH]c2c1	–	6.87
CCC(C)(C)Nc1ccc2c(C(F)(F)F)cc(=O)[nH]c2c1	–	6.96
O=c1cc(C(F)(F)F)c2ccc(NCC(F)(F)F)cc2[nH]1	6.04	7.82
CN(C)c1ccc2c(C(F)(F)F)cc(=O)[nH]c2c1	–	6.12
CCN(CC)c1ccc2c(C(F)(F)F)cc(=O)[nH]c2c1	–	6.33
CCN(CC(F)(F)F)c1ccc2c(C(F)(F)F)cc(=O)[nH]c2c1	–	7.52
CCCN(CC(F)(F)F)c1ccc2c(C(F)(F)F)cc(=O)[nH]c2c1	–	6.62
Cc1cc2c(C(F)(F)F)cc(=O)[nH]c2cc1N	–	7.52
CCc1cc2c(C(F)(F)F)cc(=O)[nH]c2cc1N	6.23	7.70
CCCc1cc2c(C(F)(F)F)cc(=O)[nH]c2cc1N	7.08	8.05
CCC(C)c1cc2c(C(F)(F)F)cc(=O)[nH]c2cc1N (stereo unspecified)	–	7.89
CCCNc1cc2[nH]c(=O)cc(C(F)(F)F)c2cc1C	–	6.19
Cc1cc2c(C(F)(F)F)cc(=O)[nH]c2cc1NCC(C)C	–	6.19
CCc1cc2c(C(F)(F)F)cc(=O)[nH]c2cc1NC	–	6.06
CCc1cc2c(C(F)(F)F)cc(=O)[nH]c2cc1NCC(F)(F)F	–	6.80
O=c1cc(C(F)(F)F)c2cc(NCC(F)(F)F)ccc2[nH]1	6.97	7.80
O=c1cc(C(F)(F)F)c2cc(NCC(F)(F)C(F)(F)F)ccc2[nH]1	6.61	7.11
CC(C)CNc1ccc2[nH]c(=O)cc(C(F)(F)F)c2c1	6.39	7.23
CC(C)(C)CNc1ccc2[nH]c(=O)cc(C(F)(F)F)c2c1	–	7.25
